From patent publication US12187728B2 (Raze Therapeutics, Inc., priority 2015, dated 2025) come the findings set out here.

Protein sequences, listed by entry. Tags and fused reporters are not part of them. Residues count along the entry.
UniProt P13995, 36-350 limits assumed: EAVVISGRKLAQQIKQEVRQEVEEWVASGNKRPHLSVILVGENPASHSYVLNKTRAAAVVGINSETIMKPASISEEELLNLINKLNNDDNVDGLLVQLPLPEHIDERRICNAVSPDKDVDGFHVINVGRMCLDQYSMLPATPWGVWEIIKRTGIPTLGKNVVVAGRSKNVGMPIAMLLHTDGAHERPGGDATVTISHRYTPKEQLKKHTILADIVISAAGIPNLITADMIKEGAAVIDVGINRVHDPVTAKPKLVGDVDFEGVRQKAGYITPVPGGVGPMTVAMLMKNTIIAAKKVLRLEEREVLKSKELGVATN

Structures are written as SMILES. Where only a bound is given, the exact number is not on record here.

One experiment addresses Human MTHFD2 (Homo sapiens, UniProt P13995). Nature of the experiment: MTHFD2 Activity Assay (dehydrogenase activity, diaphorase/resazurin coupled fluorescence). In kind it is biochemical. Conditions: read-out: Average MTHFD2 Activity.
In the case of `Cn1c(NC2CCC(O)C2)nc2c1c(=O)n(Cc1ccc(Cl)c(Cl)c1)c(=O)n2C` (single isomer, unassigned), the IC50 lay within 0.01 to 1 µM.

The experiment is the same for the next values; noted with them: read-out: Average MTHFD2 Activity; inhibitory activity (IC50 and/or binding constant); 0.2 nM MTHFD2, 11 concentrations.
For the compound `Cn1c(N2CCCC2)nc2c1c(=O)n(Cc1ccc(Cl)cc1)c(=O)n2C`, the IC50 is greater than 10 µM.
The same measure, in the same setting: in the case of `Cn1c(N2CCCC2)nc2c1c(=O)n(Cc1cccc(Cl)c1)c(=O)n2C` it was greater than 10 µM.
For the compound `COC(=O)C(C)(C)c1nc2c(c(=O)n(Cc3cc4c(Cl)cccc4[nH]3)c(=O)n2C)n1C`, the IC50 fell in the range of 1 to 5 µM.
For `Cn1ccc2c(Cl)c(Cn3c(=O)c4c(nc(Nc5ccncc5)n4C)n(C)c3=O)ccc21`, the IC50 was in the range of 0.01 to 1 µM.
`Cn1c(Nc2ccncc2)nc2c1c(=O)n(Cc1ccc3[nH]ccc3c1Cl)c(=O)n2C`: the IC50 is 1 to 5 µM.
